Patent publication US20240109879A1, “BENZIMIDAZOLE COMPOUND AND APPLICATION THEREOF” (Medshine Discovery Inc., priority 2020, published 2024)

Amino acid sequences for entries named in this document (tags omitted). Residues count along the entry.
UniProt Q12809, whole entry: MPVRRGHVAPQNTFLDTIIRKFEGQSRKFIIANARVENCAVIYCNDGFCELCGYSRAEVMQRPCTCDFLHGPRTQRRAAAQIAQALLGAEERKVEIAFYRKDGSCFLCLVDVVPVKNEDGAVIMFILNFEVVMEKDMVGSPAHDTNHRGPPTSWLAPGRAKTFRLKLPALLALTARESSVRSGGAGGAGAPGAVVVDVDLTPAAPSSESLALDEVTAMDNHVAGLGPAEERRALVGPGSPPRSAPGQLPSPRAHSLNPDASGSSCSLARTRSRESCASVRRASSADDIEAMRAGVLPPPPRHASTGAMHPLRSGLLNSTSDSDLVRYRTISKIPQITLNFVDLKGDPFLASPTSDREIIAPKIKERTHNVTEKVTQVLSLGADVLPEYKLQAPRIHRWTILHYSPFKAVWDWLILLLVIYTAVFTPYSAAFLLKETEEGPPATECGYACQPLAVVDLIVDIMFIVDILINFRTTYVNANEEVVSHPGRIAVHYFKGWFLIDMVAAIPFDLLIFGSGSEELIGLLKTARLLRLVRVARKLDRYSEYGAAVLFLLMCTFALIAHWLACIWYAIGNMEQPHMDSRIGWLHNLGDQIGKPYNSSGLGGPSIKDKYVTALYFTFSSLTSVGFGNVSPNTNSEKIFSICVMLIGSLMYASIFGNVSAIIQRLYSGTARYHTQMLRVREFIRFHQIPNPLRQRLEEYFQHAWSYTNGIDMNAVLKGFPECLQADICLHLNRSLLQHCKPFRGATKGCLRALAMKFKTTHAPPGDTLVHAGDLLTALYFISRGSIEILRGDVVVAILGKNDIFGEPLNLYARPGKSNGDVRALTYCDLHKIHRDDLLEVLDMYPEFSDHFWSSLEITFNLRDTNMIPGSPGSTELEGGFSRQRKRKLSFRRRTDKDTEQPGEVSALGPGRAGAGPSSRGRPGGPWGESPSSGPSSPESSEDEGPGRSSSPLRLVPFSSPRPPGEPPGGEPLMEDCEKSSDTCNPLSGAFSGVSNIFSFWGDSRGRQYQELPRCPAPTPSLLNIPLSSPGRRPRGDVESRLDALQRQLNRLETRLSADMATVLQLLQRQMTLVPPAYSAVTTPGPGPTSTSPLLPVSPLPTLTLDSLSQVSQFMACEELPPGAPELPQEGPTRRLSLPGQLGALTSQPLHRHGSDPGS
UniProt Q09472, 1049-1156 limits assumed: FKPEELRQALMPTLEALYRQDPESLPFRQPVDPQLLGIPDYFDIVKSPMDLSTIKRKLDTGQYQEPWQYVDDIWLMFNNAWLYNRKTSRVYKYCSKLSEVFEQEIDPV

Legend:
[1] = Pharmacokinetic study in CD-1 mice (intravenous injection and oral gavage); conditions: male CD-1 mice; for Bioavailability F (%): gavage 3 mg/kg vs intravenous 0.5 mg/kg; for Cmax: read-out: Plasma drug concentration Cmax
[2] = target: hERG potassium ion channel (Homo sapiens (Human), UniProt Q12809)
[3] = target: p300 (Homo sapiens (Human), UniProt Q09472); assay: Assay of p300 protein activity (HTRF, p300-GST with Histone H4 (1-21) K5/8/12/16Ac-GG-Biotin peptide ligand); conditions: read-out: p300 (IC50), 5 nM p300-GST, 50 nM peptide ligand

Row | Bioavailability F (%) [1] [%] | Area under curve (0-inf) AUC0-inf ([1]; gavage, 3 mg/kg) [µM·h] | Area under curve (0-t) AUC0-last ([1]; gavage, 3 mg/kg) [µM·h] | Time to peak Tmax ([1]; gavage, 3 mg/kg) [min] | half-life T1/2 ([1]; gavage, 3 mg/kg) [min] | Apparent distribution volume Vdss ([1]; intravenous, 0.5 mg/kg) [L/kg] | Area under curve (0-inf) AUC0-inf ([1]; intravenous, 0.5 mg/kg) [µM·h] | Area under curve (0-t) AUC0-last ([1]; intravenous, 0.5 mg/kg) [µM·h] | Clearance Cl ([1]; intravenous, 0.5 mg/kg) [mL/min/kg] | half-life T1/2 ([1]; intravenous, 0.5 mg/kg) [min] | Cmax ([1]; gavage, 3 mg/kg) [nM] | IC50 [3] [nM] | SMILES | IC50 [2] [nM]
1 | 40 | 1.598 | 1.588 | 30 | 49.8 | 1.46 | 0.652 | 0.626 | 22.8 | 46.8 | 1280 |  | COC12CCC(n3c(C4CCCC(=O)N4c4ccc(F)c(F)c4)nc4cc(-c5c(C)noc5C)ccc43)(CC1)CC2 (single isomer, unassigned) | > 40000
2 | 54 | 2.07 | 2.019 | 45 | 101 | 1.33 | 0.637 | 0.624 | 22.9 | 43.9 | 546 |  | COC12CCC(n3c(C4CC5CC5C(=O)N4c4ccc(F)c(F)c4)nc4cc(-c5c(C)noc5C)ccc43)(CC1)CC2 (single isomer, unassigned) | > 40000
3 |  |  |  |  |  |  |  |  |  |  |  | 10.3 | CO[C@H]1CC[C@H](n2c(C3CC4CC4C(=O)N3c3ccc(F)c(F)c3)nc3c(C)c(-c4c(C)noc4C)ccc32)CC1 (some centres unmarked) | 
4 |  |  |  |  |  |  |  |  |  |  |  | 11 | CO[C@H]1CC[C@H](n2c(C3CCSC(=O)N3c3ccc(F)c(F)c3)nc3cc(-c4c(C)noc4C)ccc32)CC1 (some centres unmarked) | 
